Measured values published in patent publication US9156811B2 (priority 2008, dated 2015).

These molecules were tested on Trypanosome (T. brucei brucei) (assay: In-vitro antitrypanosomal efficacy assay (cell growth, resazurin)).

Point of comparison: Cc1nn(C)c(C)c1N[S+](=O)([O-])c1ccc(-c2ccnc(N3CCNCC3)c2)cc1Cl [DDD86206, 2-Chloro-4-(2-piperazin-1-yl-pyridin-4-yl)-N-(1,3,5-trimethyl-1H-pyrazol-4-yl)-benzenesulfonamide], “ED50 (μM) T. brucei” value 0.001 µM. Against it:
- Cc1c(N[S+](=O)([O-])c2ccc(-c3ccc4c(c3)CNCCC4)cc2)c(CC(C)C)nn1C [DDD100798, N-(3-isobutyl-1,5-dimethyl-1H-pyrazol-4-yl)-4-(2,3,4,5-tetrahydro-1H-benzo[c]azepin-8-yl)benzenesulfonamide Hydrochloride] — 6-fold higher, 0.006 µM
- Cc1cc(-c2ccnc(N3CCNCC3)c2)ccc1[S+](=O)([O-])Nc1c(C)nn(C)c1C [DDD88186, 2-Methyl-4-(2-piperazin-1-yl-pyridin-4-yl)-N-(1,3,5-trimethyl-1H-pyrazol-4-yl)-benzenesulfonamide] — 3-fold higher, 0.003 µM
- Cc1nn(C)c(C)c1N[S+](=O)([O-])c1ccc(-c2ccnc(N3CCNCC3)c2)cc1F [DDD88188, 2-Fluoro-4-(2-piperazin-1-yl-pyridin-4-yl)-N-(1,3,5-trimethyl-1H-pyrazol-4-yl)-benzenesulfonamide] — 5-fold higher, 0.005 µM
- Cc1nn(C)c(C)c1N[S+](=O)([O-])c1ccc(-c2ccnc(N3CCCNCC3)c2)cc1 [DDD87767, 4-(2-[1,4]-Diazepan-1-yl-pyridin-4-yl)-N-(1,3,5-trimethyl-1H-pyrazol-4-yl)-benzenesulfonamide] — 3-fold higher, 0.003 µM
- Cc1nn(C)c(C)c1N[S+](=O)([O-])c1c(Cl)cc(-c2cccc(N3CCNCC3)c2)cc1Cl [DDD86479, 3,5-Dichloro-3′-piperazin-1-yl-biphenyl-4-sulfonic acid (1,3,5-trimethyl-1H-pyrazol-4-yl)-amide] — 5-fold higher, 0.005 µM
- Cc1c(N[S+](=O)([O-])c2c(Cl)cc(-c3ccnc(N4CCNCC4)c3)cc2Cl)c(CC(C)C)nn1C [DDD86481, 2,6-Dichloro-N-(3-isobutyl-1,5-dimethyl-1H-pyrazol-4-yl)-4-(2-piperazin-1-yl-pyridin-4-yl)-benzenesulfonamide] — 2-fold higher, 0.002 µM
- Cc1ncccc1N[S+](=O)([O-])c1c(Cl)cc(-c2ccnc(N3CCNCC3)c2)cc1Cl [DDD86480, 2,6-Dichloro-N-(2-methyl-pyridin-3-yl)-4-(2-piperazin-1-yl-pyridin-4-yl)-benzenesulfonamide] — 330-fold higher, 0.33 µM
- Cc1c(N[S+](=O)([O-])c2ccc(-c3ccc4c(c3)CN(C)CCC4)cc2)c(CC(C)C)nn1C [DDD100868, N-(3-isobutyl-1,5-dimethyl-1H-pyrazol-4-yl)-4-(2-methyl-2,3,4,5-tetrahydro-1H-benzo[c]azepin-8-yl)benzenesulfonamide Hydrochloride] — within 1.5-fold, 0.0009 µM
- CCN(CC)Cc1cccc(-c2cc(Cl)c([S+](=O)([O-])Nc3c(C)nn(C)c3C)c(Cl)c2)c1 [DDD88007, 3,5-Dichloro-3′-diethylaminomethyl-biphenyl-4-sulfonic acid (1,3,5-trimethyl-1H-pyrazol-4-yl)-amide] — 80-fold higher, 0.08 µM
- Cc1nn(C)c(C)c1N[S+](=O)([O-])c1cc(F)c(-c2ccnc(N3CCNCC3)c2)cc1F [DDD87997, 2,5-Difluoro-4-(2-piperazin-1-yl-pyridin-4-yl)-N-(1,3,5-trimethyl-1H-pyrazol-4-yl)-benzenesulfonamide] — 3-fold higher, 0.003 µM

Cc1nn(C)c(C)c1N[S+](=O)([O-])c1ccc(-c2cccc(CCN3CCN(C)CC3)c2)cc1 [DDD87753, 3′-[2-(4-Methyl-piperazin-1-yl)-ethyl]biphenyl-4-sulfonic acid (1,3,5-trimethyl-1H-pyrazol-4-yl)-amide] was tested, and the “ED50 (μM) T. brucei” value was over 1 µM.

Where a name gives a salt, the structure may show the parent alone.
